The target in assay [1] is T1, MsNDH-2 (Mycolicibacterium smegmatis, UniProt A0QYD6). Kind of assay: Inhibition of MsNDH-2 (NADH oxidation with menadione, absorbance at 340 nm). Type of assay: biochemical, M. smegmatis. Particulars: same IC50 given in μg/mL to assist comparisons with MICs.
Assay [2] addresses T1, MsNDH-2. More on the design: method as in PMID 19564154. Conditions: value published earlier; cited from earlier work.

Chains of the proteins cited; added tags and fusions are not shown. Residues count along the entry.
UniProt A0QYD6, 1-457: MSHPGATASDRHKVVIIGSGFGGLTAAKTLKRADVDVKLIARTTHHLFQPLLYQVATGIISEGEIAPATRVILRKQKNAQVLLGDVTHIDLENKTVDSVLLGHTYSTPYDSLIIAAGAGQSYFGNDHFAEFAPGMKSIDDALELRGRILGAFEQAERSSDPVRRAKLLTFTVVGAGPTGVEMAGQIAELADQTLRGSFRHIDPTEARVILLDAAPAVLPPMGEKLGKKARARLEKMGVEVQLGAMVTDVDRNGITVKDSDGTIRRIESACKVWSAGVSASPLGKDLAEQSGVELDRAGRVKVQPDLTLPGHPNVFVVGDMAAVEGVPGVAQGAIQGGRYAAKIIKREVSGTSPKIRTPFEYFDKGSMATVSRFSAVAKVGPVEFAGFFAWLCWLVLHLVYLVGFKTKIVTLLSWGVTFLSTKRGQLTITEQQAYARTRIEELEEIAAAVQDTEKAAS

Where two headings read alike, the source gives them in different places.

As for Polymyxin B [reference compound], the “MsNDH-2 IC50” value at MsNDH-2 [1] is 2.5 µg/mL; on MsNDH-2 [2], 1.6 µg/mL.
